Measured values: US7612034B2, “Treatment of subnormal bone mineral density” (Genelabs Technologies, Inc., priority 1999, dated 2009)

Test: Oral uptake and absorption of DHEA polymorph preparations
Settings: oral administration

SMILES | uptake by the GI tract
C[C@]12CC[C@H](O)CC1=CC[C@@H]1[C@@H]2CC[C@]2(C)C(=O)CC[C@@H]12 [DHEA form I, dehydroepiandrosterone] | good uptake by the GI tract
C[C@]12CC[C@H](O)CC1=CC[C@@H]1[C@@H]2CC[C@]2(C)C(=O)CC[C@@H]12 [DHEA form II, dehydroepiandrosterone] | good uptake by the GI tract
